Measured values published in patent US20070161637A1, “Substituted pyridin-2-ylamine analogues” (Neurogen Corporation, priority 2003, published 2007).

The chains behind the UniProt entries cited, without tags or fusion partners.
UniProt Q8NER1, whole entry: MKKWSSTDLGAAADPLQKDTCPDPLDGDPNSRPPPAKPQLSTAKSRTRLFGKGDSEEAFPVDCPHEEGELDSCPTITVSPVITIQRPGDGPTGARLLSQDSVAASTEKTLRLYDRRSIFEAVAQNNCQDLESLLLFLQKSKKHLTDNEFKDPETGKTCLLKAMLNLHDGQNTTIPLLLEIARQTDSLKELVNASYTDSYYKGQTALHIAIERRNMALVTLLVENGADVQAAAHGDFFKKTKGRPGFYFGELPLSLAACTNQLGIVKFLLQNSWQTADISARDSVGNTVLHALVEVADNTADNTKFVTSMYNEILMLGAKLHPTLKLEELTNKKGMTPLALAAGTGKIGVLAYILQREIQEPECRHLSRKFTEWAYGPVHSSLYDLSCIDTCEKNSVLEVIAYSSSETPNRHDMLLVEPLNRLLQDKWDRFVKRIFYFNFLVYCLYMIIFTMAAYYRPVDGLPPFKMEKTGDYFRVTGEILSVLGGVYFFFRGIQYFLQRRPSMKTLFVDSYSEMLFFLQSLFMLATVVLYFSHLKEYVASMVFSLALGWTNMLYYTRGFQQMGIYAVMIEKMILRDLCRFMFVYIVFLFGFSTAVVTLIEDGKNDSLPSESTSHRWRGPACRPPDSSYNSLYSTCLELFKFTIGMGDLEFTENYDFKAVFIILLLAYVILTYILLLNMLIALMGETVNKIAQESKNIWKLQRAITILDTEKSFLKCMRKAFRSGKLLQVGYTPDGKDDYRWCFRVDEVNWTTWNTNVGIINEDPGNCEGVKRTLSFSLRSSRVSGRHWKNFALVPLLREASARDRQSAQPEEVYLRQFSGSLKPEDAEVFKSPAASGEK

Target: human capsaicin receptor (Homo sapiens, UniProt Q8NER1)
Assay: Calcium mobilization assay, determination of antagonist activity (Example 6)
Type: cell-based
Details: concentration giving 50% decrease in the fluorescence response of cells expressing human capsaicin receptor exposed to capsaicin

Cc1nc(NCc2ccccc2C(F)(F)F)nc(Nc2ccc(C(F)(F)F)cc2)n1
IC50: < 1000 nM
